Compound activity (PubChem)
Yeast UUG start: alters start codon recognition fidelity in yeast. S. cerevisiae UUG-firefly luciferase reporter, luminescence/redox ratio. 350,000 tested, 0.13% active. activity score, % at 18.7 µM. AID 602363;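 active means replicate mean at a twofold rise or more, about +100% in these data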;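 further: firefly luciferase made from a UUG start codon reports start codon fidelity; reporter light over untreated wells divided by growth signal over untreated wells; some hits fall short of that in this replicate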
p-CIP stab down: compounds decreasing mouse p/CIP protein stability; Q05BA5; F442A p/CIP-EGFP cells, EGFP fluorescence, 16 h; decrease of EGFP signal, % at 10 µM; actives 0.01% (n = 290,000); AID 1984;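 active = EGFP signal decrease of at least 30% at 10 µM or well 3 SD below plate mean, unless failing retest; inactive = the rest, including hits failing retest or dose response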
PKA-R2B activ: activates the human PKA-R2B holoenzyme complex. P22694+P31323. PKA-R2B holoenzyme dissociation, Cy5-IP20 fluorescence polarization; R2B truncated from residue 108, S112A mutant; 0% DMSO only, 100% 113 µM cGMP. activation, % at 11.4 µM. actives 0.079% (n = 340,000). AID 504700;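 active = activation above a cutoff set at the mean over all compounds plus 3 SD, cut at about 18% in these data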;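 also: higher means more holoenzyme dissociation and a rise in polarization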
Granule exo inh: blocks lytic granule exocytosis | TALL-104 LAMP-1 surface exposure, flow cytometry; cells stimulated with thapsigargin and PMA | inhibition, % at 10 µM | actives 0.66% (n = 360,000);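 active = inhibition above about 55%, limit read from the data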
PKA-R1A activ: activates the PKA-R1A holoenzyme complex | P00514+P68181 | PKA-R1A dissociation, Cy5-IP20 fluorescence polarization; scaled: DMSO 0%, 113 µM cGMP 100% | activation, % at 11.4 µM | actives 0.083% (n = 340,000) | AID 504707;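 active = percent activation above the mean of all tested compounds plus 3 SD, cut at about 19% in these data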;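 also: higher means more PKAc released from R1A so a rise in polarization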
ABCB6 inh MLPCN: blocks the human ABCB6 transporter | Q9NP58 | K562-ABCB6 porphyrin accumulation, flow cytometry, 1 h; hits give low values | fluorescence ratio to DMSO, % at 10 µM | actives 0.19% (n = 360,000);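 active = fluorescence ratio to DMSO below 75%, the collection mean minus 3 SD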;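 also: signal is porphyrin accumulated inside mitochondria; 100% equals median channel fluorescence of DMSO control wells; lower ratio means ABCB6 inhibition with less porphyrin fluorescence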
ABCB6 inh CP1: inhibitors of human ABC transporter ABCB6; ratio response (% of DMSO), % at 10 µM; shares compounds with ABCB6 inh MLPCN; K562-ABCB6 porphyrin accumulation, flow cytometry, 1 h; hits give low values; 700 tested, under 10 active;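 active = repeat-averaged ratio response below 75% of DMSO, the collection mean minus 3 SD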;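 also: median porphyrin fluorescence at 575 nm with 488 nm excitation from mitochondria; lower ratio means less porphyrin signal so ABCB6 inhibition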
Starred values were filed as active, the others as inactive; . = no result given. A selection: hits, their analogues and other compounds. The true share with any hit is near 0.94%.

| nr | SMILES | Yeast UUG start | p-CIP stab down | PKA-R2B activ | Granule exo inh |
| --- | --- | --- | --- | --- | --- |
| 1 | C[C@@H]1CN([C@H](C)CO)C(=O)c2cc(NC(=O)NC3CCCCC3)ccc2O[C@@H](C)CCCCO[C@@H]1CN(C)S(=O)(=O)c1ccccc1 | 1 | . | . | . |
| 2 | COc1ccc(Cl)cc1NC(=O)CCc1ccccc1 | -3 | 8 | -8 | 2 |
| 3 | COc1ccc(Cl)cc1NC(=O)CCCC(=O)c1ccccc1 | -21 | -5 | -9 | 8 |
| 4 | COCc1cc(C)nc(SCC(=O)NC2CCCCC2C)c1C#N (stereo not drawn) | -4 | 2 | -6 | 1 |
| 5 | COCc1cc(C)nc(SCC(=O)N2CCC(C)CC2)c1C#N | -8 | -10 | -6 | -4 |
| 6 | Cc1cc(C)nc(NS(=O)(=O)c2cccs2)c1 | . | -4 | -6 | -3 |
| 7 | COCC(=O)N(C)C[C@H]1Oc2ncc(-c3ccccc3C)cc2C(=O)N([C@@H](C)CO)C[C@H]1C | 7 | . | . | . |
| 8 | CCn1cc([N+](=O)[O-])c(C(=O)Nc2ccn(Cc3ccccc3F)n2)n1 | 5 | -7 | 10 | 2 |
| 9 | C[C@H](CO)N1C[C@H](C)[C@@H](CN(C)Cc2ccc(C(=O)O)cc2)OCCCC[C@H](C)Oc2ccc(NC(=O)C3CCCCC3)cc2C1=O | 4 | . | . | . |
| 10 | COc1ccc2c(c1OC)C(=O)N(c1ccc3c(c1)CCC3)C2=O | -9 | -12 | -1 | 0 |
| 11 | COc1ccc2c(c1OC)C(=O)N(c1ccc(C)c(C)c1)C2=O | . | -14 | -4 | -2 |
| 12 | O=C(C[C@H]1C[C@H]2c3cc(NC(=O)NC4CCCC4)ccc3O[C@H]2[C@@H](CO)O1)NCC(F)(F)F | 2 | . | . | . |
| 13 | COc1cccc(-c2nnc(-c3ccco3)o2)c1 | -26 | -7 | -13 | -1 |
| 14 | COc1cccc(-c2nnc(-c3ccc(C)o3)o2)c1 | -44 | -10 | -10 | -7 |
| 15 | CC1CCN(C(=O)c2ccccc2NC(=O)Nc2ccccc2)CC1 | 1 | -21 | -13 | 4 |

| nr | PKA-R1A activ | ABCB6 inh MLPCN | ABCB6 inh CP1 |
| --- | --- | --- | --- |
| 1 | . | . | . |
| 2 | 1 | 95 | . |
| 3 | -7 | 61* | 99 |
| 4 | -19 | 96 | . |
| 5 | 4 | 58* | 102 |
| 6 | 7 | 69* | 97 |
| 7 | . | . | . |
| 8 | -8 | 71* | 103 |
| 9 | . | . | . |
| 10 | -4 | 63* | 98 |
| 11 | 1 | 99 | . |
| 12 | . | . | . |
| 13 | -5 | 67* | 97 |
| 14 | 4 | 96 | . |
| 15 | -6 | 11* | 98 |

Full records as entered above. Order of screens: Yeast UUG start	p-CIP stab down	PKA-R2B activ	Granule exo inh	PKA-R1A activ	ABCB6 inh MLPCN	ABCB6 inh CP1
O=C(C[C@H]1C[C@H]2c3cc(NC(=O)NC4CCCC4)ccc3O[C@H]2[C@@H](CO)O1)NCC(F)(F)F across the screens: 2	.	.	.	.	.	.
COc1cccc(-c2nnc(-c3ccco3)o2)c1 across the screens: -26	-7	-13	-1	-5	67*	97

The results go on:
| nr | SMILES | Yeast UUG start | p-CIP stab down | PKA-R2B activ | Granule exo inh |
| --- | --- | --- | --- | --- | --- |
| 16 | CC(=O)Nc1cccc(-c2ccnc3c2CC(C)(C(=O)Nc2cccc(C(F)(F)F)c2)O3)c1 (stereo not drawn) | 13 | . | . | 0 |
| 17 | COC(=O)c1cc(S(=O)(=O)N2CCN(c3ccc(F)cc3)CC2)c[nH]1 | . | -10 | -4 | 1 |
| 18 | Cc1cc2c(C)nc(Cc3ccccc3)nc2o1 | 2 | -4 | 3 | -1 |
| 19 | CSc1nc(C)c2cc(C)oc2n1 | -17 | 0 | 0 | -2 |
| 20 | Clc1ccc(Cl)c(OCCN2CCCC2)c1 | -6 | -8 | -1 | -22 |
| 21 | C[C@@H]1CCCCO[C@H](CN(C)C(=O)Nc2ccc3c(c2)OCO3)[C@H](C)CN([C@H](C)CO)C(=O)c2cc(NS(=O)(=O)c3ccccc3)ccc2O1 | 7 | . | . | . |
| 22 | Cc1ccc(Cl)c(NC(=O)COC(=O)c2ccccc2C(=O)c2ccc(Cl)c([N+](=O)[O-])c2)c1Cl | -13 | 10 | -11 | 10 |
| 23 | CCCNC(=O)COC(=O)c1ccccc1C(=O)c1ccc(Cl)c([N+](=O)[O-])c1 | . | -1 | -16 | 9 |
| 24 | OC(c1ccc(F)cc1)c1nc(/C=C/c2ccccc2)cs1 (stereo not drawn) | -14 | . | . | -4 |
| 25 | COC(=O)C1=CNC=C(C(=O)OC)C1c1cccc2ccccc12 | 12 | -12 | 2 | 15 |
| 26 | CCN1CCN(C(=O)c2ccc3c(=O)n(Cc4ccccc4OC)c(=S)[nH]c3c2)CC1 | 2 | 6 | -7 | -4 |
| 27 | CCNC(=O)C[C@@H]1CC[C@@H]2[C@@H](COc3ccc(NC(=O)c4ccc(F)cc4)cc3C(=O)N2C)O1 | 0 | . | . | . |
| 28 | CC(C(=O)NCC1(c2ccccc2)CCOCC1)N1CCOCC1 (stereo not drawn) | . | -1 | 4 | -2 |
| 29 | CC(C(=O)NCC1(c2ccccc2)CCCC1)N1CCOCC1 (stereo not drawn) | -17 | -6 | -5 | -2 |
| 30 | CCOC(=O)C1CCN(S(=O)(=O)c2ccc(C)cc2)CC1 | 8 | -13 | -6 | 6 |

| nr | PKA-R1A activ | ABCB6 inh MLPCN | ABCB6 inh CP1 |
| --- | --- | --- | --- |
| 16 | . | 103 | 97 |
| 17 | -8 | 46* | 99 |
| 18 | -5 | 9.0* | 99 |
| 19 | 0 | 89 | . |
| 20 | -2 | 49* | 105 |
| 21 | . | . | . |
| 22 | -3 | 99 | . |
| 23 | -4 | 57* | 93 |
| 24 | . | 61* | 98 |
| 25 | 10 | 71* | 105 |
| 26 | 3 | 69* | 102 |
| 27 | . | . | . |
| 28 | -7 | 96 | . |
| 29 | 1 | 60* | 102 |
| 30 | -1 | 109 | . |

The listing continues:
| nr | SMILES | Yeast UUG start | p-CIP stab down | PKA-R2B activ | Granule exo inh |
| --- | --- | --- | --- | --- | --- |
| 31 | CCOC(=O)C1CCN(S(=O)(=O)c2ccc(Cl)cc2OC)CC1 | 11 | 4 | -12 | 1 |
| 32 | CCOC(=O)C1CCN(S(=O)(=O)c2ccc(C(=O)OC)cc2)CC1 | -9 | -9 | 4 | -2 |
| 33 | CCOC(=O)C1CCN(S(=O)(=O)c2ccc(Br)c(OCC)c2)CC1 | -9 | -6 | 1 | -2 |
| 34 | CCOC(=O)C1CCN(S(=O)(=O)c2ccc(NC(=O)OC)cc2)CC1 | 10 | -3 | -8 | -2 |
| 35 | CCOC(=O)C1CCN(S(=O)(=O)c2cc(Cl)c(C)cc2OC)CC1 | 12 | -8 | -2 | -1 |
| 36 | CN1C(=O)c2cc(NC(=O)c3ccc(F)cc3)ccc2OC[C@@H]2O[C@H](CC(=O)N3CCOCC3)CC[C@@H]21 | 17 | . | . | . |
| 37 | COc1ccc([N+](=O)[O-])cc1NC(=O)C1CCCO1 (stereo not drawn) | . | -13 | 1 | 12 |
| 38 | O=C(Nc1nc2ccc([N+](=O)[O-])cc2s1)C1CCCO1 (stereo not drawn) | . | 8 | -14 | 2 |
| 39 | CSc1ccc(CCNC(=O)CCc2nnc3ccc(N4CCCCC4)nn23)cc1 | -27 | -12 | -10 | 4 |
| 40 | CCOC(=O)C(C)NC(=O)CCc1nnc2ccc(N3CCCCC3)nn12 (stereo not drawn) | -3 | -14 | -6 | -4 |
| 41 | CCOCCCNC(=O)CCc1nnc2ccc(N3CCCCC3)nn12 | -16 | -2 | 3 | 0 |
| 42 | Cn1cnc(S(=O)(=O)NCc2ccccc2)c1 | . | 1 | 4 | 0 |
| 43 | COc1cccc(CNS(=O)(=O)c2cn(C)cn2)c1 | . | -18 | 2 | 5 |
| 44 | CCOc1ccc(NC(=O)CCc2nnc3ccc(N4CCC(C)CC4)nn23)cc1 | -18 | 3 | 0 | -1 |

| nr | PKA-R1A activ | ABCB6 inh MLPCN | ABCB6 inh CP1 |
| --- | --- | --- | --- |
| 31 | -13 | 98 | . |
| 32 | -1 | 98 | 97 |
| 33 | -2 | 91 | 99 |
| 34 | -5 | 109 | 98 |
| 35 | -8 | 92 | 98 |
| 36 | . | . | . |
| 37 | 5 | 71* | 101 |
| 38 | 6 | 92 | . |
| 39 | -6 | 96 | . |
| 40 | 3 | 90 | 98 |
| 41 | -9 | 98 | 100 |
| 42 | 0 | 92 | . |
| 43 | -5 | 8.0* | 104 |
| 44 | -3 | 101 | . |

Quoted from the listing.
`CCOC(=O)C1CCN(S(=O)(=O)c2ccc(Cl)cc2OC)CC1` | p-CIP stab down: 4
`CCOC(=O)C(C)NC(=O)CCc1nnc2ccc(N3CCCCC3)nn12` (stereo not drawn) | Granule exo inh: -4
